Drawing on ChEMBL document CHEMBL3886177 (2015), this text covers IC50 for one compound.

The assay has as its target T1, Nuclear factor NF-kappa-B p105 subunit (Homo sapiens, UniProt P19838).
T1 sequence (P19838 whole entry): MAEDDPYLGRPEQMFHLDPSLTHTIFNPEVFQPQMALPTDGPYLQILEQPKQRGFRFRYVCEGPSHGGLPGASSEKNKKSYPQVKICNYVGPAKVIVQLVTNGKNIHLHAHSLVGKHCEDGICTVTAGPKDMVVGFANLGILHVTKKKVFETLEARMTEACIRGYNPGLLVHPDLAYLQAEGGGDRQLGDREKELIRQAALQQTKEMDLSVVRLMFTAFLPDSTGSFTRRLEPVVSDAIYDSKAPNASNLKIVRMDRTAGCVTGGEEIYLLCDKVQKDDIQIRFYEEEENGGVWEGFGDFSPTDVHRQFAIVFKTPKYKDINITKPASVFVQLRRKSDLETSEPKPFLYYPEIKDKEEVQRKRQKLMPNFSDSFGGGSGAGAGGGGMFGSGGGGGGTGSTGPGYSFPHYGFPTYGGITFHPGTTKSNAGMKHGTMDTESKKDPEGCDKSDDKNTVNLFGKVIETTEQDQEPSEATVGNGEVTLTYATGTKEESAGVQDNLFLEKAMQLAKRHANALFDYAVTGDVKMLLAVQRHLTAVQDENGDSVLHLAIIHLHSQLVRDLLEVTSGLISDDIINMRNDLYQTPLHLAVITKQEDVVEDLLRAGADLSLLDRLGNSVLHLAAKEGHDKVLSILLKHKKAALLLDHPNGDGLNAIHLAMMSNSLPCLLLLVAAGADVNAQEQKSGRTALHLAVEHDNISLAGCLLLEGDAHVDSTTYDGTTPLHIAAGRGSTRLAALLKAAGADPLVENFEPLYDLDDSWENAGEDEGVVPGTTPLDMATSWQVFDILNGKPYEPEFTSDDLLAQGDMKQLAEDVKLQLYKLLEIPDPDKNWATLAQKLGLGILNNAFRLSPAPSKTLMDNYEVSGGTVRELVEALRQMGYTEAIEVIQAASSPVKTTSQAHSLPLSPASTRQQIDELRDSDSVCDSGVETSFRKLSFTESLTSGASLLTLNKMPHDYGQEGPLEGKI
In words: Luciferin is added to the cell lysates and the luciferase enzyme catalyzes a cleavage of luciferin leading to the emission of light.

As usually defined, the IC50 is the concentration at which inhibition is half-maximal. The low end stands for higher potency, the high end for lower potency. `COc1cc(/C=C/C(=O)CC(=O)/C=C/c2ccc(O)c(OC)c2)ccc1O` [CURCUMIN] had a half-inhibitory concentration (IC50) of 8.2 µM.
